Structures can show the parent of a compound that is named as a salt.
What was measured:
α2A adrenergic receptor = biological target: T1, α2A adrenergic receptor (Homo sapiens, UniProt P08913); assay: RSAT (Receptor Selection and Amplification Technology) assay, α2A; type: cell-based; conditions: ratio of maximal effect to that of standard full agonist (brimonidine)
T1 construct: expressed in transfected cells; host or cells: NIH-3T3 cells
Experimental: Incubations continue 72-96 hr at 37° C.

By UniProt entry, the sequences of proteins in these tests, tags left out.
UniProt P08913, whole entry: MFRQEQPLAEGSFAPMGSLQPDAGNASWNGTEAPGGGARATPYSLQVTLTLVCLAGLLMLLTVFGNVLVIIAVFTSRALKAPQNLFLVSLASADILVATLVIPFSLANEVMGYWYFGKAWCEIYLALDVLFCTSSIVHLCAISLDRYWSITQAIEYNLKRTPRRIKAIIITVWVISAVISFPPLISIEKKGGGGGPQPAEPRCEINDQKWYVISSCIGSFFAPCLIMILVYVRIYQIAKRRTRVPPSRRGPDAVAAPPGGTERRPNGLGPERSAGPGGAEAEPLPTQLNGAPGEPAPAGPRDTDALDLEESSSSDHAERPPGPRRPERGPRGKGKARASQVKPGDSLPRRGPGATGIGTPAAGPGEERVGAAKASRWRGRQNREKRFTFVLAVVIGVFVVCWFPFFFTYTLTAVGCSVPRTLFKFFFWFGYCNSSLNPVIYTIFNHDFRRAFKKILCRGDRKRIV
UniProt P18089, whole entry: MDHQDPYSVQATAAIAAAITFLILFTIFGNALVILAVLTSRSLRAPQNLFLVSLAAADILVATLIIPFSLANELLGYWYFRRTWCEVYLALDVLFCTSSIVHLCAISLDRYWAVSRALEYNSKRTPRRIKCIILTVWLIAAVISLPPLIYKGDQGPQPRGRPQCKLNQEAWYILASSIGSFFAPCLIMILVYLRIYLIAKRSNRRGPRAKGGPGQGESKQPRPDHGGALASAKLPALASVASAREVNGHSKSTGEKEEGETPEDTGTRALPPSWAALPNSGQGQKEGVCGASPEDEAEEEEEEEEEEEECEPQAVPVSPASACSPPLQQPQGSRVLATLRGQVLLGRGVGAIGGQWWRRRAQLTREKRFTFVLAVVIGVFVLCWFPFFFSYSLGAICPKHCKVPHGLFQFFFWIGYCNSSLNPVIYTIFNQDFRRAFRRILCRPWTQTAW
UniProt P18825, whole entry: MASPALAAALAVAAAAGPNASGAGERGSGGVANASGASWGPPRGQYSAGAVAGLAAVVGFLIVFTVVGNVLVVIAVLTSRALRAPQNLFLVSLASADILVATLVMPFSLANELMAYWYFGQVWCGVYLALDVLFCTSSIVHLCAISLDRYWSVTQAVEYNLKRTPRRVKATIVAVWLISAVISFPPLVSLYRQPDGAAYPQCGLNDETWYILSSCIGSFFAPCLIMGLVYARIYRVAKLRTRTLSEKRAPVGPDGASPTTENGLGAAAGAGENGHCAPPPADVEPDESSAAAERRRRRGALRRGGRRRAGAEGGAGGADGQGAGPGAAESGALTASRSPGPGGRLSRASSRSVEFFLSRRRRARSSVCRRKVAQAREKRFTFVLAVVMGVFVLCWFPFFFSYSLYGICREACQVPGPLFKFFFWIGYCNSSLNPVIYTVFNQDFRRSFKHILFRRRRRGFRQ

α1A adrenergic receptor = biological target: T2, α1A adrenergic receptor (Homo sapiens, UniProt P35348); assay: cell-based; conditions: for EC50: RSAT EC50 α1A, NIH-3T3 cells cotransfected with receptor and G protein; for RSAT relative efficacy α1A: ratio of maximal effect to that of a standard full agonist
T2 sequence (P35348 1-466): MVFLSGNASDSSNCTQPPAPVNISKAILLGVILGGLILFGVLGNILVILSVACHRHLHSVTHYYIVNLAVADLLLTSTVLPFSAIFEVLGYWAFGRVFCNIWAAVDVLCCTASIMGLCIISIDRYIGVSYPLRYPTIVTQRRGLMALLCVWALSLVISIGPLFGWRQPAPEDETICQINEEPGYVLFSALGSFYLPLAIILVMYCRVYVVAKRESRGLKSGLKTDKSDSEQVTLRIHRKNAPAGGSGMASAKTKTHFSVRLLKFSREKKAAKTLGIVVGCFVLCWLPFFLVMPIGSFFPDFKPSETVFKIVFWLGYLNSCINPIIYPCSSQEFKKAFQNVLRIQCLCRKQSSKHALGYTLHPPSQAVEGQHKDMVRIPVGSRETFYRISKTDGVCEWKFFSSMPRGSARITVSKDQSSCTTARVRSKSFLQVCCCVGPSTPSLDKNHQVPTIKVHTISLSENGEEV
Experimental: (§1) The RSAT assay measures a receptor-mediated loss of contact inhibition that results in selective proliferation of receptor-containing cells in a mixed population of confluent cells. The increase in cell number is assessed with an appropriate transfected marker gene such as β-galactosidase, the activity of which can be easily measured in a 96-well format. Receptors that activate the G protein, Gq, elicit this response. Alpha2 receptors, which normally couple to Gi, activate the RSAT response when coexpressed with a hybrid Gq protein that has a Gi receptor recognition domain, called Gq/i5.
(§2) NIH-3T3 cells are plated at a density of 2×10^6 cells in 15 cm dishes and maintained in Dulbecco's modified Eagle's medium supplemented with 10% calf serum. One day later, cells are cotransfected by calcium phosphate precipitation with mammalian expression plasmids encoding p-SV-β-galactosidase (5-10 μg), receptor (1-2 μg) and G protein (1-2 μg). 40 μg salmon sperm DNA may also be included in the transfection mixture. Fresh media is added on the following day and 1-2 days later, cells are harvested and frozen in 50 assay aliquots. Cells are thawed and 100 μl added to 100 μl aliquots of various concentrations of drugs in triplicate in 96-well dishes. Incubations continue 72-96 hr at 37° C. After washing with phosphate-buffered saline, β-galactosidase enzyme activity is determined by adding 200 μl of the chromogenic substrate (consisting of 3.5 mM o-nitrophenyl-β-D-galactopyranoside and 0.5% nonidet P-40 in phosphate buffered saline), incubating overnight at 30° C. and measuring optical density at 420 nm. The absorbance is a measure of enzyme activity, which depends on cell number and reflects a receptor-mediated cell proliferation. The efficacy or intrinsic activity is calculated as a ratio of the maximal effect of the drug to the maximal effect of a standard full agonist for each receptor subtype.
(§3) NA stands for “not active” at concentrations less than 10 micromolar.

α2B adrenergic receptor = α2B adrenergic receptor (Homo sapiens, UniProt P18089); assay: cell-based; conditions: for EC50: RSAT EC50 α2B, NIH-3T3 cells cotransfected with receptor and G protein; for RSAT relative efficacy α2B: ratio of maximal effect to that of standard full agonist (brimonidine)
Experimental: as §1, §2, §3

α2C adrenergic receptor = α2C adrenergic receptor (Homo sapiens, UniProt P18825); assay: cell-based; conditions: for EC50: RSAT EC50 α2C, NIH-3T3 cells cotransfected with receptor and G protein; for RSAT relative efficacy α2C: ratio of maximal effect to that of standard full agonist (brimonidine)
Experimental: as §1, §2, §3

| SMILES | RSAT relative efficacy α2A (α2A adrenergic receptor) | EC50 (α1A adrenergic receptor) [nM] | RSAT relative efficacy α1A (α1A adrenergic receptor) | EC50 (α2B adrenergic receptor) [nM] | RSAT relative efficacy α2B (α2B adrenergic receptor) | EC50 (α2C adrenergic receptor) [nM] | RSAT relative efficacy α2C (α2C adrenergic receptor) | RSAT relative efficacy α2A (α2A adrenergic receptor; dihydrochloride) | RSAT relative efficacy α1A (α1A adrenergic receptor; dihydrochloride) | RSAT relative efficacy α2B (α2B adrenergic receptor; dihydrochloride) | RSAT relative efficacy α2C (α2C adrenergic receptor; dihydrochloride) |
| --- | --- | --- | --- | --- | --- | --- | --- | --- | --- | --- | --- |
| c1cnc2c(c1)CCC(Cc1c[nH]cn1)C2 (single isomer, unassigned; (-)) [(−) enantiomer, (−) 7-((1H-imidazol-4-yl)methyl)-5,6,7,8-tetrahydroquinoline] | (0.33 eff) | 806 | (0.49 eff) | 7 | (1.0 eff) | 22.7 | (0.7 eff) |  |  |  |  |
| c1cnc2c(c1)CCC(Cc1c[nH]cn1)C2 (single isomer, unassigned; (+)) [(+) enantiomer, (+)-7-(1H-imidazol-4-ylmethyl)-5,6,7,8-tetrahydro-quinoline dihydrochloride] |  | 19.7 |  | 0.2 |  | 1.1 |  | (0.67 eff) | (0.85 eff) | (0.98 eff) | (0.83 eff) |
| c1cnc2c(c1)CCC(Cc1c[nH]cn1)C2 (racemic) [racemic mixture, 7-(1H-Imidazol-4-ylmethyl)-5,6,7,8-tetrahydro-quinoline dihydrochloride] | (0.72 eff) | 38.8 | (1.43 eff) | 0.1 | (1.0 eff) | 4 | (1.0 eff) |  |  |  |  |

Source: patent publication US7943641B2, “7-((1H-imidazol-4-yl)methyl)-5,6,7,8-tetrahydroquinoline” (Allergan, Inc., priority 2006, dated 2011)
